Laboratory results: PMC5391968, “Comparison of cell-based assays for the identification and evaluation of competitive CXCR4 inhibitors” (PLoS ONE, 2017)

Chains of the proteins cited; added tags and fusions are not shown.
UniProt P61073, whole entry: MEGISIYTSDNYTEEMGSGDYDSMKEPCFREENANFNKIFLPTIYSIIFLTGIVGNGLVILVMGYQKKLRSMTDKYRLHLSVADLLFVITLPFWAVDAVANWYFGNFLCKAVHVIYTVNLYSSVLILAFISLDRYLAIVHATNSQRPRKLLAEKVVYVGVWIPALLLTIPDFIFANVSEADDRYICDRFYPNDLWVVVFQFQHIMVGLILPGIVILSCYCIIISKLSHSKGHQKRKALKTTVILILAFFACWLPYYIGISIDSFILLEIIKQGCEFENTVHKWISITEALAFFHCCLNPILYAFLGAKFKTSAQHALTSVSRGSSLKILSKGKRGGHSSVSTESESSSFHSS

Key:
CXCR4 [1] = target: T1, CXCR4 (Homo sapiens, UniProt P61073); assay: CXCL12^AF647 binding assay on Jurkat cells
CXCR4 [2] = target: T1, CXCR4; assay: CXCR4 internalization assay in SUP-T1 cells; assay type: cell-based; design: CXCR4 receptors endogenously expressed on SUP-T1 cells; endogenous in cells; host or cells: SUP-T1 (ATCC)
CXCR4 [3] = target: T1, CXCR4; assay: Calcium mobilization assay (FLIPR Tetra) in U87.CD4.CXCR4 cells; assay type: cell-based; conditions: read-out: IC50 Calcium signaling (CXCL12-induced)

- IC50 (CXCR4 [1]): 0.67 ± 0.1 nM
- IC50 (CXCR4 [2]): 70.5 ± 13.1 nM
- IC50 (CXCR4 [3]): 12.3 ± 1.7 nM
SMILES: NCCCCN(Cc1nc2ccccc2[nH]1)[C@H]1CCCc2cccnc21 [AMD11070]
